Literature values in patent US6498181B1, “Synergistic tumorcidal response induced by histamine” (Maxim Pharmaceuticals, priority 1999, dated 2002).

System: breast cancer
Conditions: breast cancer patients, clinical trials; cited from earlier work

In the case of “p185^HER-2 antibody: humanized mAb raised against the p185^HER-2 receptor (Genetech)”, the overall tumor response is given as “significant improvement in overall tumor response”.
